# Binding of CDR-mutated scFvs to a peptide of the spike HR2 region

Source: Li et al. 2023 (doi:10.1038/s41467-023-39022-2), MIT Lincoln Laboratory and A-Alpha Bio; data file from the FLAb repository.

All variants were tested on one target, the spike HR2 peptide PDVDLGDISGINAS (SARS-CoV-2).

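The starting antibody came from a phage panning campaign against this peptide. These sequences belong to a second round, designed from the earlier measurements on random variants of the parent. Group labels follow the data file (Ctrl: baseline library sampled from a position-specific scoring matrix, with some repeated check sequences; Rand: our label for a block that the file lists under HC and that is probably the random mutants of the ten best first-round binders; En: ensemble of fine-tuned language models; GP: Gaussian process model; GPLM: also part of the Gaussian process libraries; HC: hill climbing; Gen: genetic algorithm; Gibbs: Gibbs sampling; a sequence that several methods proposed may carry one label only). AlphaSeq pools MATa yeast showing the antibodies with MATalpha yeast showing the peptide. The frequency of each diploid, read from paired DNA barcodes, reflects how well the two displayed proteins bind. The ratio of observed to expected reads was calibrated, replicate by replicate, on BCL2-family standards whose Kd was known from biolayer interferometry. Each pool was mated in six replicate cultures.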

The variants keep the light chain, the linker and the frameworks of Ab-14 (scFv order VH, the linker GGGGSGGGGSGGGGS, VL).
VH: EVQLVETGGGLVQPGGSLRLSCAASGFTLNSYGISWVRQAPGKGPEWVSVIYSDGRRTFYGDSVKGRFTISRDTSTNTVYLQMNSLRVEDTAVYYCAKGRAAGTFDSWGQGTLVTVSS
VL: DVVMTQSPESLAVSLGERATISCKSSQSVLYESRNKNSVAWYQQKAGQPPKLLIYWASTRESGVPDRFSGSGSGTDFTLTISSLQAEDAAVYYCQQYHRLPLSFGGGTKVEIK

Each variant is given by its three heavy chain CDRs, as the data file delimits them; those of the parent are GFTLNSYGIS, VIYSDGRRTFYGDSVK, GRAAGTFDS. Scale: log10 of Kd in nM, estimated from mating counts; low values are strong binders. A mean of the replicates is given; it leaves out those without a signal. An entry "not detected" has no value in the source: the pair was not observed among the diploids in any replicate. This suggests poor binding but is not conclusive. Three control strains display no target. For all heavy chain designs, 1% of the pairings with them gave a signal, with a median of 2.08 and one signal in twenty below 0.84, so weak values seen in few replicates may be background.

| # | CDR-H1 | CDR-H2 | CDR-H3 | group | mean log10 Kd (nM) | replicates with signal |
|---|---|---|---|---|---|---|
| 1 | GFTLQEYGIS | VIYSDGRRTFIGDSVK | GGAAGTFDS | Ctrl | 1.48 | 5/6 |
| 2 | GFSLNSYGIS | VIYSDGRRTFYVDSVK | GEAAGTFDS | GPLM_Gen | 1.20 | 6/6 |
| 3 | GFDLNSYGIS | VIYSDGHRTFYGDSVK | GKTAGTFDS | GP_Gibbs | 0.10 | 6/6 |
| 4 | GFTLDSYGIS | VIYSDGRRTFYGDSVK | GNEAGTFDT | GP_Gibbs | -0.28 | 6/6 |
| 5 | GFTLNSYGIS | VIYSDGRKTFYGDSVK | GRAAGTWDS | Ctrl | 2.11 | 1/6 |
| 6 | GFDLDEYGIS | VIYADGMRTAYSDSVK | GNQAGTFDM | En_Gen | -0.40 | 6/6 |
| 7 | GFSLEEFGIS | VIYADGSRRAYAQDVK | GGTAGGFVV | En_Gibbs | not detected | 0/6 |
| 8 | GFSLNSYGIS | VIYSDGRRTFYHDSVK | GSAAGTFDS | GPLM_Gen | 0.57 | 6/6 |
| 9 | GFVLNEYGIS | VIYSDGRRTFYGDSVK | GRTAGTFDT | GP_Gen | 0.53 | 6/6 |
| 10 | GFDLNSYGIS | VIYSDGRRTFYGDPVK | GRTAGTFDS | GPLM_Gen | 0.37 | 1/6 |
| 11 | GFHLNSYGIS | VIYSDGMRTFYVDSVK | GRQAGTFDS | GP_Gibbs | 1.90 | 3/6 |
| 12 | GFTLNDYGIS | VIYSDGRRTQYIQSVK | QRAAGTFDS | Rand | 2.44 | 1/6 |
| 13 | GFTLDSYGIS | VIYSDGRRTFYGDSVK | GRCAGTFDS | Ctrl | 1.13 | 1/6 |
| 14 | GFTPNSYGIS | VWYSDGRRTFDSDSVK | GRAGGTFDS | Rand | not detected | 0/6 |
| 15 | GFDLNEYGIS | VIYADGKRTAYIDSVK | GNQAGTFDL | En_Gen | -0.25 | 6/6 |
| 16 | GFTLNMYGIS | VIYSDGLRTFYLDSVK | GRAAGTFDS | Ctrl | not detected | 0/6 |
| 17 | GFNLDEYGIS | VIYADGKRTFYQDSVK | GEVAGTFDF | En_HC | -0.86 | 6/6 |
| 18 | GFWLNEYGIS | VIYSDGRRTFYKDSVK | GQTAGTFDS | GP_Gibbs | 1.15 | 3/6 |
| 19 | GFEVDEYGIS | VIYADGKRSMYANKVK | GHIAGMMGV | En_Gibbs | not detected | 0/6 |
| 20 | GFVLNSYGIS | VIYSDGRRTAYGDSVK | GRAAGTFDS | GPLM_Gibbs | 1.75 | 6/6 |
| 21 | GFDLNEYGIS | VIYADGMRTAYANDVK | GEVAGTFDV | En_Gen | -0.57 | 6/6 |
| 22 | GFWLNSYGIS | VIYADGRRTFYGDSVK | GQAAGTFDS | GPLM_Gen | 0.84 | 4/6 |
| 23 | GFDLNEYGIS | VIYADGMRTHYTDSVK | GNQAGTFDS | En_HC | 0.11 | 6/6 |
| 24 | GFDLEEYGIS | VIYADGRRSSYTDKVK | GGTVQMNGQ | En_Gibbs | not detected | 0/6 |
| 25 | GFDLNSYGIS | VIYSDGRRTFYGDRVK | GLTAGTFDS | GP_Gibbs | 0.34 | 6/6 |
| 26 | GFDLNEYGIS | VIYADGMRTQYIDSVK | GEIAGTFDS | En_HC | 0.05 | 6/6 |
| 27 | GFDLNEYGVS | VIYADGQRRAYAANFK | GVNIGGLDA | En_Gibbs | not detected | 0/6 |
| 28 | GFTLNSYGIS | VIYSDGRRTSYSDKVR | GRAAGTFDS | Ctrl | 1.08 | 2/6 |
| 29 | GFSLNEYGIS | VIYSDGRRTFYGDSVK | GRAAGTFDR | GPLM_Gen | -0.26 | 6/6 |
| 30 | GFELNSYGIS | VIYSDGRRTFYADSVK | GRTAGTFWS | GPLM_Gen | not detected | 0/6 |
| 31 | GFDIDEYGVS | VIYADGFRKAYAESVK | GLQQFGFTI | En_Gibbs | not detected | 0/6 |
| 32 | GFTLNEYGIS | VIYSDGRRTFYSDSVK | GHAAGTFDT | GP_HC | 0.00 | 6/6 |
| 33 | GFDLNEYGIS | VIYADGKRTAYVDDVK | GQNAGTFDV | En_Gen | -0.65 | 6/6 |
| 34 | GFDLDEYGIS | VIYADGMRTFYADSVK | GEAAGTFDI | En_HC | -0.43 | 6/6 |
| 35 | GFHLNDYGIS | VIYSDGRRTFYGDSVK | GKAAGTFDS | GP_HC | 1.18 | 6/6 |
| 36 | GFTLNSYGIS | VIYSDGRRTFYIDSVK | ARAAGTFDS | Ctrl | not detected | 0/6 |
| 37 | GFDLNSYGIS | VIYSDGRRTFYGDQVK | GRQAGTFDS | GP_Gen | 1.35 | 6/6 |
| 38 | GFTLNSYGIS | VIYSDGRRTFYSDSVK | GSVAGTFDS | GPLM_Gen | 0.22 | 6/6 |
| 39 | NFDLNSYGIS | VIYSDGRRTFYGDSVK | GRQAGTFNS | GP_HC | 1.60 | 4/6 |
| 40 | GFDLNEYGIS | VIYADGQRTFYADSVK | GNQAGTFDS | En_HC | 0.24 | 6/6 |
| 41 | GFDLEDYGIS | VIYADGMRTAYSDSVK | GETAGTFDV | En_Gen | -0.23 | 6/6 |
| 42 | QFTLNSYGIS | VIYADGIRTFYGDSVK | GRASATFDS | Ctrl | not detected | 0/6 |
| 43 | GFNLEEYGIS | VIYADGKRTQYSENVK | GHKGNVRTV | En_Gibbs | not detected | 0/6 |
| 44 | GFDLNEYGIS | VIYADGRRTFYADSVK | GQLAGTFDL | En_HC | -0.78 | 6/6 |
| 45 | GFTLNSYGIS | VIYSDGRRTFYGDSVK | GRIAGTFDG | Ctrl | 2.07 | 2/6 |
| 46 | GFTLNSYGIS | VIYSDGRRTFYSDSVR | GREAGTFDS | Ctrl | 0.07 | 6/6 |
| 47 | GFDLEEYGIS | VIYADGKRSSVSNSVK | GQLGNAFDM | En_Gibbs | 3.33 | 2/6 |
| 48 | GFDLNEYGIS | VIYADGRRTFYSDSVK | GTVAGTFDL | En_HC | -0.55 | 6/6 |
| 49 | GFDLDEYGIS | VIYADGVRTAYSDSVK | GEVAGTFDT | En_Gen | 0.30 | 6/6 |
| 50 | SFSLNEYGIS | VIYSDGRRTFYGDSVK | GRTAGTFDS | GPLM_Gen | 1.37 | 2/6 |
| 51 | GFELNSYGIS | VIYSDGRRTFYTDSVK | GQVAGTFDS | GPLM_Gibbs | 0.19 | 6/6 |

The last 6 entries again:

{"CDR-H1": "GFTLNSYGIS", "CDR-H2": "VIYSDGRRTFYSDSVR", "CDR-H3": "GREAGTFDS", "group": "Ctrl", "mean log10 Kd (nM)": "0.07", "replicates with signal": "6/6"}
{"CDR-H1": "GFDLEEYGIS", "CDR-H2": "VIYADGKRSSVSNSVK", "CDR-H3": "GQLGNAFDM", "group": "En_Gibbs", "mean log10 Kd (nM)": "3.33", "replicates with signal": "2/6"}
{"CDR-H1": "GFDLNEYGIS", "CDR-H2": "VIYADGRRTFYSDSVK", "CDR-H3": "GTVAGTFDL", "group": "En_HC", "mean log10 Kd (nM)": "-0.55", "replicates with signal": "6/6"}
{"CDR-H1": "GFDLDEYGIS", "CDR-H2": "VIYADGVRTAYSDSVK", "CDR-H3": "GEVAGTFDT", "group": "En_Gen", "mean log10 Kd (nM)": "0.30", "replicates with signal": "6/6"}
{"CDR-H1": "SFSLNEYGIS", "CDR-H2": "VIYSDGRRTFYGDSVK", "CDR-H3": "GRTAGTFDS", "group": "GPLM_Gen", "mean log10 Kd (nM)": "1.37", "replicates with signal": "2/6"}
{"CDR-H1": "GFELNSYGIS", "CDR-H2": "VIYSDGRRTFYTDSVK", "CDR-H3": "GQVAGTFDS", "group": "GPLM_Gibbs", "mean log10 Kd (nM)": "0.19", "replicates with signal": "6/6"}

In the paper, a design with two or fewer of six values counts as a poor binder. The range of this assay differs from that of the first round, and the authors advise against merging the two.